Experimental data published in BindingDB's records for 3965704.

The chains behind the UniProt entries cited, without tags or fusion partners. Residues count along the entry.
UniProt P37136, 32-614 limits assumed: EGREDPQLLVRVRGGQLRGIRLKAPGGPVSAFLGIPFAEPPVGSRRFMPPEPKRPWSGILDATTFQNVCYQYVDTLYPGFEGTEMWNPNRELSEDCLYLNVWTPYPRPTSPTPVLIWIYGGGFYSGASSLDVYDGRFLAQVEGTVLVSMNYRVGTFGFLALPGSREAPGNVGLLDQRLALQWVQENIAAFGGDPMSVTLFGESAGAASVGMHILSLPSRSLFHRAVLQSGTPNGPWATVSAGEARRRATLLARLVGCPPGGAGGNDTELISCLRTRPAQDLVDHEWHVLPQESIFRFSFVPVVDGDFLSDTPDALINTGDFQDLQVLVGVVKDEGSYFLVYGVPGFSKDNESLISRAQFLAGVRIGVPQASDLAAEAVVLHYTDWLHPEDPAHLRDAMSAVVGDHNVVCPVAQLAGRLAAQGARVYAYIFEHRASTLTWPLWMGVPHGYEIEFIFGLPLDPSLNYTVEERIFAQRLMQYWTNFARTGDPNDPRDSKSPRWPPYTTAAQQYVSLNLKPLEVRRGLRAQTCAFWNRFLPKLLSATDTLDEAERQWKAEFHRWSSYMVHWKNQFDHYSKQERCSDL

Tests used:
[1] = molecular target: T1, Acetylcholinesterase (Rattus norvegicus, UniProt P37136); assay: ASSAY_NAME: ChEMBL_29075 (CHEMBL642842) DESCRIPTION: Effect on Acetylcholinesterase activity in rat brain homogenates
[2] = molecular target: T1, Acetylcholinesterase; assay: ASSAY_NAME: ChEMBL_29076 (CHEMBL642843) DESCRIPTION: Effect on Acetylcholinesterase activity in rat erythrocytes

## CC[N+](C)(CC)CCc1ccncc1
[1]
  IC50: 200 µM
[2]
  IC50: 200 µM

## C[n+]1ccccc1CCN1C(=O)CCC1=O
[1]
  IC50: 470 µM
[2]
  IC50: 870 µM

## C[n+]1ccccc1CCC(O)CCl (stereo not drawn)
[1]
  IC50: 200 µM
[2]
  IC50: 200 µM

## C[n+]1ccccc1CCl
[1]
  IC50: 340 µM
[2]
  IC50: 460 µM

## CC1C=CN(C)c2c1c1c(n2C)CCC1OCCCl (stereo not drawn)
[1]
  IC50: 380 µM
[2]
  IC50: 250 µM

## C[n+]1ccc(CCN2C(=O)CCC2=O)cc1
[1]
  IC50: 890 µM
[2]
  IC50: 830 µM

## CC[N+](C)(CC)CCc1ccccn1
[1]
  IC50: > 1000 µM
[2]
  IC50: > 1000 µM

## CCN(CC)CCc1cccc[n+]1C
[1]
  IC50: 500 µM
[2]
  IC50: 550 µM

## C[N+](C)(C)CCCCl
[1]
  IC50: 260 µM
[2]
  IC50: 260 µM
